Experimental data taken from ChEMBL document CHEMBL3763148, “Synthesis, structure elucidation, DNA-PK and PI3K and anti-cancer activity of 8- and 6-aryl-substituted-1-3-benzoxazines” (Eur J Med Chem, 2016).

By UniProt entry, the sequences of proteins in these tests, tags left out. Where a name states a change or a piece, a line headed by the entry shows the natural chain unless it says otherwise.
UniProt P48736: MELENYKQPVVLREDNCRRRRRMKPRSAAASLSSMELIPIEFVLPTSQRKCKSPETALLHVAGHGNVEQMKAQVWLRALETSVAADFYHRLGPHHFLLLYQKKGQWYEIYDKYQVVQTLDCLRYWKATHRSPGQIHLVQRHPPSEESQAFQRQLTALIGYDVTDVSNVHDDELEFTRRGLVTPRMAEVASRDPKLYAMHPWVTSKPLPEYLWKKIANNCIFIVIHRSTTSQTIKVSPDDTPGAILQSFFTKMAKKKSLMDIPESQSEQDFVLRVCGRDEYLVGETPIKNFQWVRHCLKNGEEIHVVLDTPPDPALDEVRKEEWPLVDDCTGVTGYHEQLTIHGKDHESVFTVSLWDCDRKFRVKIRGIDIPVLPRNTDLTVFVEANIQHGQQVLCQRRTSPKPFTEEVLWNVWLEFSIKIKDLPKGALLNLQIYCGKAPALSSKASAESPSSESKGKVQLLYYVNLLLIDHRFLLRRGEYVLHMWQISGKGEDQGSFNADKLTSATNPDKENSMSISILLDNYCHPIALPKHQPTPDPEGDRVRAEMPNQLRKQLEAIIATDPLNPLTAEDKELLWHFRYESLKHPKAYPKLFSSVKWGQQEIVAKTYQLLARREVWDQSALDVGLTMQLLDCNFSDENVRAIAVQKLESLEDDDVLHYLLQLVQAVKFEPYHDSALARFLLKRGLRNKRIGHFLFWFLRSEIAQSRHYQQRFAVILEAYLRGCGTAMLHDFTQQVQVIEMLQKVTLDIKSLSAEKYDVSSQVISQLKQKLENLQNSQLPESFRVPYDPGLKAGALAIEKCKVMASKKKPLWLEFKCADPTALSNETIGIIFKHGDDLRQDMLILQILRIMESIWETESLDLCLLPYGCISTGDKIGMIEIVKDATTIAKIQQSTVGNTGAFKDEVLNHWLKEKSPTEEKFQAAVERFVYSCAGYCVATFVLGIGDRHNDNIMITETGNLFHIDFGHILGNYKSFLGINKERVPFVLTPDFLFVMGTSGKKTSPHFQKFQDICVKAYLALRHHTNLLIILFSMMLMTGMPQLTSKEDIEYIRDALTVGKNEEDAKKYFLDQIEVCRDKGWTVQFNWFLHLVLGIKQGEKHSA
UniProt P42338: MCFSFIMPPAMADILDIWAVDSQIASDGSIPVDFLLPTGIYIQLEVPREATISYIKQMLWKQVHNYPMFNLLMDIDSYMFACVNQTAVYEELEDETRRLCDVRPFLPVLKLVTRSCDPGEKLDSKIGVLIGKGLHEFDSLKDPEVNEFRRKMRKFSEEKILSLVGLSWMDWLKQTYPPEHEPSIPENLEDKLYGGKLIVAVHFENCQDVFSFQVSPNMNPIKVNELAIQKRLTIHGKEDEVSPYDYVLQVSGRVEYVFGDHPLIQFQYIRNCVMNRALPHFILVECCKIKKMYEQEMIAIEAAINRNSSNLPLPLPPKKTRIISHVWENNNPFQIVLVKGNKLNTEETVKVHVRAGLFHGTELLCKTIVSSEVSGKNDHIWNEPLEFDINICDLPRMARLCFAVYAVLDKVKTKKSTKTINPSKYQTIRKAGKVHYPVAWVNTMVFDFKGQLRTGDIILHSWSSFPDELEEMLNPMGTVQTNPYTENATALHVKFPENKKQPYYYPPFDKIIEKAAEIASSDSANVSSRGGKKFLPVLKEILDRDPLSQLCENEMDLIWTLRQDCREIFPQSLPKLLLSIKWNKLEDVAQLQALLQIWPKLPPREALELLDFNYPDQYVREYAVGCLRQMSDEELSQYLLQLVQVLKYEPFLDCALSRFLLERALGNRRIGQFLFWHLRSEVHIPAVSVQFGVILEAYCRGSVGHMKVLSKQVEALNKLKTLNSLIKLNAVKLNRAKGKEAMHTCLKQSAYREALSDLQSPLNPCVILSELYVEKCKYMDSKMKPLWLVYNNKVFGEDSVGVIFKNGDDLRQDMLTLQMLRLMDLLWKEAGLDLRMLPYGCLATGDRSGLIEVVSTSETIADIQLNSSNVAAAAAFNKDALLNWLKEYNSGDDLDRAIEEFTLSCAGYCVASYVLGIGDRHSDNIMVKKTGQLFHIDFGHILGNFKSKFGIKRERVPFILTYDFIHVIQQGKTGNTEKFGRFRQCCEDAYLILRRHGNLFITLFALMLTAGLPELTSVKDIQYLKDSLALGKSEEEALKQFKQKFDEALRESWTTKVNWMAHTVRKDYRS

Key:
[1] = target: Phosphatidylinositol 4,5-bisphosphate 3-kinase catalytic subunit gamma isoform (Homo sapiens, UniProt P48736); assay: Inhibition of PI3Kgamma (unknown origin) incubated for 60 mins by kinase-glo luminescence assay
[2] = target: Phosphatidylinositol 4,5-bisphosphate 3-kinase catalytic subunit beta isoform (Homo sapiens, UniProt P42338); assay: Inhibition of PI3Kbeta (unknown origin) incubated for 60 mins by kinase-glo luminescence assay

IC50 [1]: 1500 nM
IC50 [2]: 3000 nM
SMILES: O=c1cc(N2CCOCC2)oc2c(-c3ccccc3)cccc12 [LY-294002]
